Experimental data as given in patent WO2005044853A2 (dated 2005).

Chains of the proteins cited; added tags and fusions are not shown. A line that says so, or that is headed by a name, gives the form on record, which may keep a tag or linker.
UniProt P15692, other isoform, or with tags, fused parts or gaps limits assumed: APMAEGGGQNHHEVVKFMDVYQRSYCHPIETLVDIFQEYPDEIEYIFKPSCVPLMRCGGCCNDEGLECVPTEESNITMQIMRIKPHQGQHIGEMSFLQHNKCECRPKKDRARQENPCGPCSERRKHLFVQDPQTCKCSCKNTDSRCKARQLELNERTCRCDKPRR
UniProt Q00731, other isoform, or with tags, fused parts or gaps limits assumed: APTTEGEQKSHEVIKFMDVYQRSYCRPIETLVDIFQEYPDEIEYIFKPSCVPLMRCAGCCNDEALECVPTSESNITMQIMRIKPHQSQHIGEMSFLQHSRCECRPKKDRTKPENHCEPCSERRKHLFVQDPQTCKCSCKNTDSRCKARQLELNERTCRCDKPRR

How the values were obtained:
[1] = target: T1, human VEGF (human, UniProt P15692-4 27-191, limits assumed); assay: cell-based or functional assay
[2] = target: T2, murine VEGF (mouse, UniProt Q00731-2 27-190, limits assumed); assay: competition-binding phage ELISA at 25C, Fab on phage
T2 construct: also called mVEGF; mouse VEGF

[3] = target: T1, human VEGF; assay: as above
[4] = target: T2, murine VEGF; assay: cell-based or functional assay
[5] = target: T2, murine VEGF; assay: SPR (Figure 8), Fab
[6] = target: T1, human VEGF; assay: SPR (Figure 8), Fab

B1: YADS2 Fab (Fab, V domains shown)
VH: EVQLVESGGGLVQPGGSLRLSCAASGFAISDYDIHWVRQAPGKGLEWVADIAPYAGATAYADSVKGRFTISADTSKNTAYLQMNSLRAEDTAVYYCSRSSYAYYAAMDYWGQGTLVTVSS
VL: DIQMTQSPSSLSASVGDRVTITCRASQSYAYAVAWYQQKPGKAPKLLIYDASYLYSGVPSRFSGSGSGTDFTLTISSLQPEDFATYYCQQAYSSPDTFGQGTKVEIKR
- IC50 of inhibition of VEGF induced HUVEC proliferation [1]: ~12 nM

B2: G6 Fab (Fab, V domains shown)
VH: EVQLVESGGGLVQPGGSLRLSCAASGFTISDYWIHWVRQAPGKGLEWVAGITPAGGYTYYADSVKGRFTISADTSKNTAYLQMNSLRAEDTAVYYCARFVFFLPYAMDYWGQGTLVTVSS
VL: DIQMTQSPSSLSASVGDRVTITCRASQDVSTAVAWYQQKPGKAPKLLIYSASFLYSGVPSRFSGSGSGTDFTLTISSLQPEDFATYYCQQSYTTPPTFGQGTKVEIKR
notes: also called G6 antibody; G6 clone
- IC50 [2]: 0.5 nM and 1 nM
- IC50 [3]: 0.5 nM and 1 nM

B3: G6-31 Fab (Fab, V domains shown)
VH: EVQLVESGGGLVQPGGSLRLSCAASGFTISDYWIHWVRQAPGKGLEWVAGITPAGGYTYYADSVKGRFTISADTSKNTAYLQMNSLRAEDTAVYYCARFVFFLPYAMDYWGQGTLVTVSS
VL: DIQMTQSPSSLSASVGDRVTITCRASQDVSTAVAWYQQKPGKAPKLLIYSASFLYSGVPSRFSGSGSGTDFTLTISSLQPEDFATYYCQQGYGNPFTFGQGTKVEIKR
- fold improvement over G6 in inhibiting HuVEC growth [4]: ≥ 100 fold
- fold improvement over G6 in inhibiting HuVEC growth [1]: ≥ 100 fold

B4: G6-23 Fab (Fab, V domains shown)
VH: EVQLVESGGGLVQPGGSLRLSCAASGFTISDYWIHWVRQAPGKGLEWVAGITPAGGYTYYADSVKGRFTISADTSKNTAYLQMNSLRAEDTAVYYCARFVFFLPYAMDYWGQGTLVTVSS
VL: DIQMTQSPSSLSASVGDRVTITCRASQDVSTAVAWYQQKPGKAPKLLIYSASFLYSGVPSRFSGSGSGTDFTLTISSLQPEDFATYYCKQGYANPWTFGQGTKVEIKR
notes: also called Fab-G6-23; FabG6-23
- fold improvement over G6 in inhibiting HuVEC growth [4]: ≥ 100 fold
- fold improvement over G6 in inhibiting HuVEC growth [1]: ≥ 100 fold
- fold improvement in Kd over G6 [5]: ≥ 7 fold
- fold improvement in Kd over G6 [6]: ≥ 7 fold

Where “and” joins values, the source holds several entries; their conditions need not be identical. Identical values can stand only once.
